{"sequences": {"note": "By UniProt entry, the sequences of proteins in these tests, tags left out.", "UniProt P35372, whole entry": "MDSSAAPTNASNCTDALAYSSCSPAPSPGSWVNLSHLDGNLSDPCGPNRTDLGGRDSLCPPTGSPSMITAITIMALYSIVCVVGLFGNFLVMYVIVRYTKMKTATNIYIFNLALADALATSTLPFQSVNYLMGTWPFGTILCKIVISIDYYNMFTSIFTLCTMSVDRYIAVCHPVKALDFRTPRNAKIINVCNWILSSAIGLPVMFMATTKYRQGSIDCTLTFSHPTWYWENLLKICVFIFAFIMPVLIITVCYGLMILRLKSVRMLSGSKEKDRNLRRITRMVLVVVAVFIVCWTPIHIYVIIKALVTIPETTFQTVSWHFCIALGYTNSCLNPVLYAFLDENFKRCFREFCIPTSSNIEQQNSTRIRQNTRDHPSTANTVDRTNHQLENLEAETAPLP"}, "source": "patent US7776819B2", "about": "“Targeted drug delivery of pain and addiction therapies using opioid receptor-mediated internalization” (The Board of Trustees of the University of Illinois, priority 2005, dated 2010)", "target": "T1, human mu opioid receptors (hMOR) (Homo sapiens, UniProt P35372)", "T1 construct": "expressed in transfected cells; host or cells: CHO cells, stably transfected (G418 selection); membrane preparation", "experiment": "[3H]DAMGO displacement receptor binding assay, CHO-hMOR membranes", "conditions": "1 nM [3H]DAMGO", "protocol": "Receptor membranes were prepared from CHO cells transfected with opioid mu receptors. Binding was performed at 30° C. in 50 mM pH 7.4 tris HCl buffer for 1 h for CHO-MOR (100 μg protein/reaction, 1 nM 3H-DAMGO). Reactions were terminated by vacuum filtration through GF/B filters pretreated with 0.2% polyethylenimine. These were then washed twice with ice-cold PBS. Filter-bound radioactivity was determined by liquid scintillation counting. Nonspecific binding was determined in the presence of 20 μM DAMGO.\nReceptor binding assay was performed based on the method previously described. Briefly, membranes were prepared from CHO-hMOR cells by Polytron homogenization at setting 6 for 2 min on ice, followed by centrifugation at 20,000 g for 30 min at 4° C. Protein content was determined by the Coomassie protein assay method (Pierce Biotechnology, Rockford, Ill.) and bovine serum albumin as the standard. MOR receptor binding was conducted in triplicate with 1 nM [^3H]DAMGO in 50 mM Tris HCl buffer (pH 7.4) at 30° C. for 1 h (50 μg protein/reaction). Nonspecific binding was determined in the presence of 20 μM unlabelled DAMGO. […] Filter-bound radioactivity was determined by liquid scintillation counting (Beckman Coulter Inc., Fullerton, Calif.). Binding data representing the mean ±SD were analyzed using Prism program (GraphPad Software, San Diego, Calif.)."}
{"smiles": "C[C@@H](NC(=O)[C@@H](N)Cc1ccc(O)cc1)C(=O)N[C@@H](Cc1ccccc1)C(=O)NCC(=O)N[C@@H](Cc1ccc(O)cc1)C(=O)N1CCC[C@H]1C(=O)N[C@@H](CO)C(N)=O", "note": "[dermorphin]", "values": [{"measurement": "IC50", "result": 1.6, "unit": "nM"}]}
